Measured values from patent US7381540B2, “Composition for measuring glucose having improved substrate specificity” (Toyo Boseki Kabushiki Kaisha, priority 2005, dated 2008).

System: modified PQQGDH
Experiment: Substrate specificity using glucose assay system (ferricyanide reduction, absorbance 420 nm)
Assay type: biochemical
Details: glutaric acid buffer pH 7.0, reagent 1%
Description: D-glucose+ferricyanide ion+PQQGDH D-glucono-1,5-lactone+ferrocyanide ion
Specificity to each substrate can be determined by changing D-glucose to other saccharides. The presence of the ferrocyanide ion produced by reduction of the ferricyanide ion was confirmed by measuring the decrease of absorbance at a wavelength of 420 nm by spectrophotometry.
A. […]
B. Potassium ferricyanide solution: 50 mM (0.165 g potassium ferricyanide (molecular weight: 329.25) dissolved in 10 ml of distilled water)
C. PQQGDH solution: 31000 U/ml (approx. 128 mg PQQGDH (Toyobo: GLD-331) dissolved in 5 ml of distilled water)
D. Substrate solution (D-glucose solution or maltose solution): 100 or 400 mM
• 1. […] The reduction in the absorbance relative to water at 420 nm was recorded for 1 to 3 minutes with a spectrophotometer while maintaining at a temperature of 37° C., and the ΔOD per minute was calculated from the initial linear portion of the curve (ΔOD test). […]
Variation in absorbance per unit time was determined by calculating ΔOD/min(ΔOD test−ΔOD blank)
To evaluate whether activity had declined with respect to sugars other than glucose, the ΔOD/min (a) with D-glucose as the substrate solution and the ΔOD/min (b) with the other sugar in place of D-glucose as the substrate solution were measured, and the relative value ((b)/(a)×100) was calculated given 100 as the measurement value with glucose as the substrate. […]

How did the Maltose/glucose ratio (substrate 4.8 mM, control 0.86) turn out when `O=C(O)CCC(=O)C(=O)O.[Na]` [Sodium α-ketoglutaric acid] was run?
Its Maltose/glucose ratio is 0.64.

What about the Maltose/glucose ratio (substrate 19.2 mM, control 0.94) of the same compound?
Its Maltose/glucose ratio is 0.90.
